Read-outs that look alike come from different tables or passages of the source.
Key:
SW480 = assay: Drug combination screen (ATPlite, Synergy Score), SW480
HCT 116 = assay: Drug combination screen (ATPlite, Synergy Score), HCT 116
SNU-C2B = assay: Drug combination screen (ATPlite, Synergy Score), SNU-C2B
DLD-1 = assay: Drug combination screen (ATPlite, Synergy Score), DLD-1
LS-411N = assay: Drug combination screen (ATPlite, Synergy Score), LS-411N

Compound | Synergy Score SW480 (SW480) | Synergy Score HCT-116 (HCT 116) | Synergy Score SNU-C2B (SNU-C2B) | Synergy Score DLD-1 (DLD-1) | Synergy Score LS-411N (LS-411N) | Synergy Score DLD-1 (DLD-1; compound in combination with IgG1-hDR5-01-G56T-E430G + IgG1-hDR5-05-E430G, DLD-1, 120 hour ATPlite, 6x6 matrix)
Cn1c(CCCC(=O)O)nc2cc(N(CCCl)CCCl)ccc21 [Bendamustine] | 0.6 | 0 | 3 |  |  | 
CC(C)C[C@H](NC(=O)[C@H](Cc1ccccc1)NC(=O)c1cnccn1)B(O)O [Bortezomib] | 8.9 |  | 7.5 |  |  | 
CN(C)/N=N/c1[nH]cnc1C(N)=O [Dacarbazine] |  | 1.5 |  | 0.8 |  | 
Cc1nc(Nc2ncc(C(=O)Nc3c(C)cccc3Cl)s2)cc(N2CCN(CCO)CC2)n1 [Dasatinib] | 10.2 | 1.9 | 1 |  |  | 
COc1cccc2c1C(=O)c1c(O)c3c(c(O)c1C2=O)C[C@@](O)(C(C)=O)C[C@@H]3O[C@H]1C[C@H](N)[C@H](O)[C@H](C)O1 [Daunorubicin] |  |  |  | 13.8 | 10.4 | 
C#Cc1cccc(Nc2ncnc3cc(OCCOC)c(OCCOC)cc23)c1 [Erlotinib] | 1 |  |  |  | 1.9 | 
Nc1nc(F)nc2c1ncn2[C@@H]1O[C@H](CO)[C@@H](O)[C@@H]1O [Fludarabine] |  | 0.9 |  |  | 0.1 | 
O=c1[nH]cc(F)c(=O)[nH]1 [Fluorouracil] | 0.8 | 1 | 0.4 | 1.2 | 1.1 | 
CS(=O)(=O)CCNCc1ccc(-c2ccc3ncnc(Nc4ccc(OCc5cccc(F)c5)c(Cl)c4)c3c2)o1 [Lapatinib] | 6.4 |  | 2.6 |  | 7.3 | 
N[C@@H](Cc1ccc(N(CCCl)CCCl)cc1)C(=O)O [Melphalan] |  | 1.1 | 9 | 6 | 3.4 | 
CN(Cc1cnc2nc(N)nc(N)c2n1)c1ccc(C(=O)N[C@@H](CCC(=O)O)C(=O)O)cc1 [Methotrexate] |  | 0.5 | 1.7 | 0.1 | 6.6 | 
CCN(CC)CCNC(=O)c1c(C)[nH]c(/C=C2\C(=O)Nc3ccc(F)cc32)c1C [Sunitinib] |  |  | 1.4 | 9.2 |  | 
COc1cc([C@@H]2c3cc4c(cc3[C@@H](O[C@@H]3O[C@@H]5CO[C@@H](c6cccs6)O[C@H]5[C@H](O)[C@H]3O)[C@H]3COC(=O)[C@H]23)OCO4)cc(OC)c1O [Teniposide] |  |  |  | 18.8 | 29.3 | 
CC[C@@]1(O)C(=O)OCc2c1cc1n(c2=O)Cc2cc3c(CN(C)C)c(O)ccc3nc2-1 [Topotecan] | 30.5 |  | 21.2 |  |  | 
O=C1[O][Pt]2([NH][C@@H]3CCCC[C@H]3[NH]2)[O]C1=O [oxaliplatin, reference compound] |  | 3.1 | 13.1 | 2.8 |  | 
CC[C@]1(O)C[C@H]2CN(CCc3c([nH]c4ccccc34)[C@@](C(=O)OC)(c3cc4c(cc3OC)N(C=O)[C@H]3[C@@](O)(C(=O)OC)[C@H](OC(C)=O)[C@]5(CC)C=CCN6CC[C@]43[C@@H]65)C2)C1 [vincristine] | 12.1 |  | 17.2 |  | 33 | 
CCC1=C[C@@H]2CN(C1)Cc1c([nH]c3ccccc13)[C@@](C(=O)OC)(c1cc3c(cc1OC)N(C)[C@H]1[C@@](O)(C(=O)OC)[C@H](OC(C)=O)[C@]4(CC)C=CCN5CC[C@]31[C@@H]54)C2 [vinorelbine] |  | 8.1 | 11 | 5.9 | 21.5 | 
TW-37 |  |  |  |  |  | 13.8
